Ab-14 heavy chain CDR variants: yeast mating affinities

Source: Li et al. 2023 (doi:10.1038/s41467-023-39022-2), MIT Lincoln Laboratory and A-Alpha Bio; data file from the FLAb repository.

The target is the same throughout: PDVDLGDISGINAS, from the HR2 region of SARS-CoV-2 spike.

Parent scFv Ab-14: VH joined to VL by the linker GGGGSGGGGSGGGGS. Changes lie in the heavy chain CDRs alone.
VH: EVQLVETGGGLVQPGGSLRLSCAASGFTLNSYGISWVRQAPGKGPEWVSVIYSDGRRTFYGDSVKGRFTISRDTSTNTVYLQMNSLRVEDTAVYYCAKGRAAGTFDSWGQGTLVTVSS
VL: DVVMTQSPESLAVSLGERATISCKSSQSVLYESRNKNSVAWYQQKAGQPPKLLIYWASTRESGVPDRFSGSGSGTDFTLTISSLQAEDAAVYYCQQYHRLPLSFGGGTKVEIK

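The starting antibody came from a phage panning campaign against this peptide. This is the validation round: designs drawn from the data on random variants, tested in the same kind of assay. Their group label is 14H_GPLM_HC (GPLM: also part of the Gaussian process libraries; HC: hill climbing; a sequence that several methods proposed may carry one label only). Affinity was read by AlphaSeq, a pooled yeast mating assay with surface-displayed partners. Mating (16 h, 30 °C) was followed by selection of diploids and sequencing of their barcodes. Each replicate has its own calibration line, from reference interactions of the BCL2 family. Mating was done six times.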

The whole VH of each variant is written out. Affinities are written as log10 Kd with Kd in nM; a lower number is a better binder. A pair that was not seen in that replicate is written "nd"; this usually means weak binding, but a binder can also be missed. A sequence measured in both rounds can read differently, since the two assays cover different ranges. The authors averaged sequences with at least three values out of six and counted those with two or fewer as poor binders. Empty control strains, which show no peptide, gave a signal in 1% of pairings with all heavy chain designs; the median was 2.08 and 95% of these signals were weaker than 0.84. No background was subtracted. For each scFv, signals with the empty controls are counted beside the result, with their mean in brackets. The parent sequence was in this pool as ten entries: three were never detected, three once, and four in most replicates, with averages from 0.34 to 2.37.

{"VH": "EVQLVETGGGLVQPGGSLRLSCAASGFDLNSYGISWVRQAPGKGPEWVSVIYSDGRRTFYGDSVKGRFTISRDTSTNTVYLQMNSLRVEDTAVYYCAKGRMAGSFDSWGQGTLVTVSS", "log10 Kd (nM) by replicate": "nd nd nd nd nd nd", "signal with controls": "0 of 18"}
{"VH": "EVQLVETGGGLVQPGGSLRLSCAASGFTLNEYGISWVRQAPGKGPEWVSVIYSDGRRTFYGDSVKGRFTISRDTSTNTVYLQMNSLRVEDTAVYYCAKGRIAGTFDNWGQGTLVTVSS", "log10 Kd (nM) by replicate": "0.61 0.73 0.35 0.74 0.44 0.94", "signal with controls": "0 of 18"}
{"VH": "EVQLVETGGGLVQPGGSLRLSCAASGFTLNDYGISWVRQAPGKGPEWVSVIYSDGRRTFYGDSVKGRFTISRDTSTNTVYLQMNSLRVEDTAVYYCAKGREAGTFISWGQGTLVTVSS", "log10 Kd (nM) by replicate": "nd nd nd nd nd nd", "signal with controls": "0 of 18"}
{"VH": "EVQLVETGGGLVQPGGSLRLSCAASGFSLNDYGISWVRQAPGKGPEWVSVIYSDGRRTFYGDSVKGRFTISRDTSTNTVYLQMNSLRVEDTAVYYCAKGRAAGTFKSWGQGTLVTVSS", "log10 Kd (nM) by replicate": "-0.36 0.42 -0.45 -0.35 0.73 0.49", "signal with controls": "0 of 18"}
{"VH": "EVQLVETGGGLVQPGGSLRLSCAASGFTLNEYGISWVRQAPGKGPEWVSVIYSDGRRTFYGDSVKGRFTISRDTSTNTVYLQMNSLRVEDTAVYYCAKGRAAGTFVQWGQGTLVTVSS", "log10 Kd (nM) by replicate": "nd nd nd nd nd nd", "signal with controls": "0 of 18"}
{"VH": "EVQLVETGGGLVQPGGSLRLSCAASGFTLNSYGISWVRQAPGKGPEWVSVIYSDGKRTFYSDDVKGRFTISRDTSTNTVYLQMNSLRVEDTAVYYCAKGRTAGTFDSWGQGTLVTVSS", "log10 Kd (nM) by replicate": "nd 0.33 0.22 0.71 -0.46 0.20", "signal with controls": "0 of 18"}
{"VH": "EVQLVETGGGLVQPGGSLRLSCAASGFTLNSYGISWVRQAPGKGPEWVSVIYSDGRRTAYSDSVKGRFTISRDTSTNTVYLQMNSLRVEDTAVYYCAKGRAGGTFDSWGQGTLVTVSS", "log10 Kd (nM) by replicate": "1.55 1.39 1.09 1.53 3.25 1.50", "signal with controls": "0 of 18"}
{"VH": "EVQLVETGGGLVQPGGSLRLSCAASGFTLNEYGISWVRQAPGKGPEWVSVIYSDGRRTFYGDSVKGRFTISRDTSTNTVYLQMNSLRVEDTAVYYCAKGRIAGTFDAWGQGTLVTVSS", "log10 Kd (nM) by replicate": "-0.34 0.12 -0.18 -0.33 -0.63 0.01", "signal with controls": "0 of 18"}
{"VH": "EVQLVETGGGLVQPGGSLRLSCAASGFTLNDYGISWVRQAPGKGPEWVSVIYSDGRRTFYGDSVKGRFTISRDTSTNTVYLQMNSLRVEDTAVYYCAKGRIAGTFDIWGQGTLVTVSS", "log10 Kd (nM) by replicate": "1.07 0.57 0.43 0.20 0.41 0.18", "signal with controls": "0 of 18"}
{"VH": "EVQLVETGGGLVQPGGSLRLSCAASGFTLDQYGISWVRQAPGKGPEWVSVIYSDGRRTFYTDSVKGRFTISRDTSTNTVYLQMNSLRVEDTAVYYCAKGRAAGTFDSWGQGTLVTVSS", "log10 Kd (nM) by replicate": "0.04 -0.13 -0.93 -0.11 -0.84 0.07", "signal with controls": "0 of 18"}
{"VH": "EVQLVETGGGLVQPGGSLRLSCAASGFTLNDYGISWVRQAPGKGPEWVSVIYSDGRRTQYIDSVKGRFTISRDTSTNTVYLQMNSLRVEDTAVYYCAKGREAGTFDSWGQGTLVTVSS", "log10 Kd (nM) by replicate": "0.52 0.89 nd 0.56 0.85 0.42", "signal with controls": "0 of 18"}
{"VH": "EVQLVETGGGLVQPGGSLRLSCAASGFTLNEYGISWVRQAPGKGPEWVSVIYSDGRRTFYTDSVKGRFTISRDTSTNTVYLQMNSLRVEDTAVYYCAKGEAAGTFDSWGQGTLVTVSS", "log10 Kd (nM) by replicate": "0.23 0.63 0.34 0.29 -0.17 0.55", "signal with controls": "0 of 18"}
{"VH": "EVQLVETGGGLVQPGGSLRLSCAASGFDLNSYGISWVRQAPGKGPEWVSVIYSDGRRTFYGDSVKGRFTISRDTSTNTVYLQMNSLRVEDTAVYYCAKGREAGSFDSWGQGTLVTVSS", "log10 Kd (nM) by replicate": "1.06 0.81 0.87 0.62 0.84 1.40", "signal with controls": "1 of 18 (2.87)"}
{"VH": "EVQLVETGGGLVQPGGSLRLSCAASGFTLNEYGISWVRQAPGKGPEWVSVIYSDGQRTFYSDSVKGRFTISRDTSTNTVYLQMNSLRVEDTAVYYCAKGRAAGFFDSWGQGTLVTVSS", "log10 Kd (nM) by replicate": "nd nd nd nd nd nd", "signal with controls": "0 of 18"}
{"VH": "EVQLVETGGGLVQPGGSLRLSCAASGFTLESYGISWVRQAPGKGPEWVSVIYSDGKRTFYSDSVKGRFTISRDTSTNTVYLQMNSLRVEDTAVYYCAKGRAAGTFDSWGQGTLVTVSS", "log10 Kd (nM) by replicate": "0.65 1.35 2.60 0.11 0.11 0.58", "signal with controls": "0 of 18"}
{"VH": "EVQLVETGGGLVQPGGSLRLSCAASGFTLNEYGISWVRQAPGKGPEWVSVIYSDGRRTMYTDSVKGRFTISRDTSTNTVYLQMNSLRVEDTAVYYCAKGRAAGTFDSWGQGTLVTVSS", "log10 Kd (nM) by replicate": "nd 0.21 0.76 0.60 2.40 nd", "signal with controls": "0 of 18"}
{"VH": "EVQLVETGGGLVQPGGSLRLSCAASGFQLNSYGISWVRQAPGKGPEWVSVIYSDGRRTFYSDSVKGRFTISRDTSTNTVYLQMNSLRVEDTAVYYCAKGRSAGTFDSWGQGTLVTVSS", "log10 Kd (nM) by replicate": "0.98 0.81 1.49 0.58 1.19 1.41", "signal with controls": "0 of 18"}
{"VH": "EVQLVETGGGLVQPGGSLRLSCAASGFTLNSYGISWVRQAPGKGPEWVSVIYADGRRTFYGDSVKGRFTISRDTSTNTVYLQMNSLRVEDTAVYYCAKGMAAGTFKSWGQGTLVTVSS", "log10 Kd (nM) by replicate": "2.49 2.11 2.15 2.22 2.77 3.63", "signal with controls": "1 of 18 (2.79)"}

The first 2 variants above that were never detected:

| VH | log10 Kd (nM) by replicate | signal with controls |
|---|---|---|
| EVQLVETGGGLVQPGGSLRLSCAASGFDLNSYGISWVRQAPGKGPEWVSVIYSDGRRTFYGDSVKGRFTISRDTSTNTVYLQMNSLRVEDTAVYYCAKGRMAGSFDSWGQGTLVTVSS | nd nd nd nd nd nd | 0 of 18 |
| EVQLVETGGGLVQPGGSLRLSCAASGFTLNDYGISWVRQAPGKGPEWVSVIYSDGRRTFYGDSVKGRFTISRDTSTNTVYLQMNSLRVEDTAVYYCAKGREAGTFISWGQGTLVTVSS | nd nd nd nd nd nd | 0 of 18 |